Molecular target: P450 BM-3 monooxygenase mutant Phe87Val Leu188Gln Ala74Gly (Priestia megaterium, UniProt P14779, A75G/F88V/L189Q)
Assay: Hydroxylation of substrates using modified cytochrome P450 monooxygenase (GC/MS, NMR analysis)
Conditions: for starting material converted: Example 6 repeated with another substrate; for Conversion: product found by GC/MS of the reaction mixture, 25° C., pH 7.5

Amino acid sequences for entries named in this document (tags omitted). Residues count along the entry.
UniProt P14779, 2-1049 A75G/F88V/L189Q limits assumed: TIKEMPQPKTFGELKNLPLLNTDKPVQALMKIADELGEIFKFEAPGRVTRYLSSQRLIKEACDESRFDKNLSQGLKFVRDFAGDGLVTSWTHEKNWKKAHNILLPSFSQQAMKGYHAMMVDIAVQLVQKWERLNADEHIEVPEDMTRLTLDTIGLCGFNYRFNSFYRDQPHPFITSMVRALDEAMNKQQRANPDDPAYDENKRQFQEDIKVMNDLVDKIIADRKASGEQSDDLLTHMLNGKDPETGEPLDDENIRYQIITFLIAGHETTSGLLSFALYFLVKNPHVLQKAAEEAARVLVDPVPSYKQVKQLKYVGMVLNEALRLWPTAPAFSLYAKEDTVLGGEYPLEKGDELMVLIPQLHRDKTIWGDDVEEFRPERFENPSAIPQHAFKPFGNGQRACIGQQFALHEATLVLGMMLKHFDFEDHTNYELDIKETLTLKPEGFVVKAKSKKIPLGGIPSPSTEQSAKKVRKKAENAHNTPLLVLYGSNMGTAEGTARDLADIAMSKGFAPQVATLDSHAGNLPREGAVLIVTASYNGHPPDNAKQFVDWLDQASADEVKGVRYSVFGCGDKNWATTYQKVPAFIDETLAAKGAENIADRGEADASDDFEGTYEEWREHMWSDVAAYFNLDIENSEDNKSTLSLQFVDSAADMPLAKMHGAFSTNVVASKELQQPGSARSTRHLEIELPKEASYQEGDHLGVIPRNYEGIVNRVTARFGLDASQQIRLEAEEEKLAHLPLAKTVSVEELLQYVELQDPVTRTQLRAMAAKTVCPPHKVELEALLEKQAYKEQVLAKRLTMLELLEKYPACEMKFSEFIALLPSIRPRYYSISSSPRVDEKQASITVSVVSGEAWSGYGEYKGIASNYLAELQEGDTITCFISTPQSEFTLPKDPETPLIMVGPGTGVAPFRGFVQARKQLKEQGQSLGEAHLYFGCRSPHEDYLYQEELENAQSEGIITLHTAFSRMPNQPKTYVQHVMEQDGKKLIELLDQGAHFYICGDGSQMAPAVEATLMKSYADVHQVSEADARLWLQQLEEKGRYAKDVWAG

| Structure (SMILES) | starting material converted | Conversion (substrate n-octane) | further results |
| --- | --- | --- | --- |
| Cc1cccc2cccnc12 [8-methylquinoline] | 35% |  |  |
| CCCCCCC(C)O (stereo not shown) [Mutant 2-octanol, 2-octanol] |  | 16% |  |
| CCCCCC(O)CC (stereo not shown) [Mutant 3-octanol, 3-octanol] |  | 47% |  |
| CCCCC(O)CCC (stereo not shown) [Mutant 4-octanol, 4-octanol] |  | 37% |  |
| CC(C)c1ccccc1 [cumene] | 70% |  |  |
| CCCCCCCC [n-octane] |  |  | starting material remaining (substrate n-octane, GC/MS): No starting material was found |
| CC(=O)/C=C/C1C(C)=CCCC1(C)C (stereo not drawn) [α-ionone] | 60% |  |  |

Reference: patent US7960155B1, “Cytochrome p450 monooxygenases and their use for oxidizing organic compounds” (BASF Aktiengesellschaft, priority 1999, dated 2011)
